# Only a part is listed here, and it is no random draw. Activity calls are given as the source filed them. No stated cut-off is given here; in the data, active means activation mostly above about 9.5% (no sharp cut-off); inactive means mostly below about 7.6%.
# Amino acid sequences for entries named in this document (tags omitted).
# UniProt P47898, whole entry, looked up: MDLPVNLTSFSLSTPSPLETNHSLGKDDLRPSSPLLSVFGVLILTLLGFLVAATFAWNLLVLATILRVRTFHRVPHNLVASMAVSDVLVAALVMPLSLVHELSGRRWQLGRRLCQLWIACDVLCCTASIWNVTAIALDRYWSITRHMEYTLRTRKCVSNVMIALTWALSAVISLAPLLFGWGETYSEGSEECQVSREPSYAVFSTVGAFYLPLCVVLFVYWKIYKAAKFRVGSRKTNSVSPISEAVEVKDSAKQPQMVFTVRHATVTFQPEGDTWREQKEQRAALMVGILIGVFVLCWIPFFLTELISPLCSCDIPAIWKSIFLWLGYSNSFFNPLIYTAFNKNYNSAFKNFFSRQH
# Target: 5-hydroxytryptamine receptor 5A (Homo sapiens) (UniProt P47898)
# Assay: HTR5A agonists in luminescence cell assay, primary screen, counter-screen for OPRM1-OPRD1 heterodimer agonist project, full-deck HTS (AID 504692);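 further: 0% = cells with vehicle only and 100% = reference agonist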
# Details: cell-based, at 9.3 µM, stronger effect = higher value
row,SMILES,activation
1,Cc1cccc(OCC(O)Cn2c(=N)n(CCN3CCOCC3)c3ccccc32)c1 (centres undefined),inactive: -1.46%
2,Cc1cc(SC(NC(=O)c2ccc(F)cc2)C(Cl)(Cl)Cl)ncn1 (centres undefined),inactive: 2.97%
3,O=C(CSc1nc2ccccc2n1CC(=O)N1CCCC1)NCc1ccc2c(c1)OCO2,inactive: -3.07%
4,CCOP(=O)(Nc1ccccc1)OCC,inactive: -2.76%
5,CCC(=O)Nc1nc2ccccc2n1CCN1CCOCC1,inactive: 6.2%
6,Cc1csc2c(NC3CCN(Cc4ccccc4)CC3)ncnc12,inactive: 5.96%
7,O=C(Cn1c(/C=C/c2ccccc2)nc2ccccc21)Nc1ccc(F)cc1,inactive: 0.41%
8,CCOc1ccc2nc(NC(=O)Cn3cnc4c3c(=O)n(C)c(=O)n4C)sc2c1,inactive: 8.02%
9,Cn1c(=O)c2c(ncn2CC(=O)Nc2nc3ccc(F)cc3s2)n(C)c1=O,inactive: 5.14%
10,CN(C(=O)Cc1ccc(Cl)c(Cl)c1)[C@H]1CCCC[C@@H]1N1CCCC1,inactive: -3.39%
11,Cc1ccc(NP(=O)(Oc2ccccc2F)Oc2ccccc2F)nc1,inactive: 1.08%
12,c1ccc(CN2CCC(Nc3nc(-c4cccs4)nc4ccccc34)CC2)cc1,inactive: 11.3%
13,Cc1cccc(NC(=O)Cn2c(=O)n(C)c3ccccc32)c1,inactive: 0.38%
14,COc1ccc(NC2CCN(C3CC(=O)N(c4ccc(F)c(Cl)c4)C3=O)CC2)cc1 (centres undefined),inactive: -3.19%
15,O=C(Cn1c(COc2ccccc2)nc2ccccc21)Nc1cccc(Cl)c1,active: 12%
16,C[C@@H](NC(=O)Cn1cnc2c(NCc3ccccc3)ncnc21)c1cccc2ccccc12,inactive: 0.92%
17,CCCCOC(=O)Cn1c(=N)n(CCN(CC)CC)c2ccccc21,inactive: 0.49%
18,O=C(Cn1cnc2c(OCc3ccccc3)ncnc21)NCCN1CCOCC1,inactive: 3.15%
19,COCCCNC(=O)CC1C(=O)N(Cc2ccccc2)C(C)c2nc3ccccc3n21 (centres undefined),inactive: -5.99%
20,CCc1cccc(CC)c1NC(=O)Cn1c(-c2ccccc2Cl)nc2ccccc21,inactive: -4.2%

row,SMILES,activation
1,CCCCCCNCCn1cnc2c(N)ncnc21,inactive: 7.33%
2,O=C(Nc1nc2ccccc2n1CCN1CCOCC1)c1ccc(Cl)cc1,inactive: -0.32%
3,Nc1cc(N)c2nonc2c1[N+](=O)[O-],inactive: 9.22%
4,O=C(Cn1cnc2c(NCc3ccccc3)ncnc21)NCCN1CCOCC1,inactive: 2.12%
5,Cc1ccccc1C(=O)Nc1cccc(NC(=O)Cn2cnc3c(=O)n(C)c(=O)n(C)c32)c1,inactive: 0.81%
6,CN(C)CCn1c(COc2ccccc2)nc2ccccc21,inactive: 3.27%
7,CSCC[C@H](NC(=O)N1CCn2c1nc1ccccc12)C(=O)NCc1ccc(C)cc1,inactive: -5.19%
8,N=c1n(CCOc2ccccc2)c2ccccc2n1CCN1CCOCC1,inactive: -0.94%
9,CC(C)CC(=O)NC(Sc1ccc(Cl)cc1)C(Cl)(Cl)Cl (centres undefined),inactive: 5.21%
10,CCN(C(=O)Cn1cnc2c1c(=O)n(C)c(=O)n2C)C1CCCCC1,inactive: 2%
11,CCN(C(=O)Cn1cnc2c1c(=O)n(C)c(=O)n2C)C1CCS(=O)(=O)C1 (centres undefined),inactive: -3.79%
12,CCC(=O)N1c2ccc(S(=O)(=O)CCC(=O)N3CCn4c3nc3ccccc34)cc2CC1C (centres undefined),inactive: 5.4%
13,Oc1ccccc1CNc1ccccn1,inactive: -4.59%
14,COCCN1CCn2c(nc3cc([N+](=O)[O-])ccc32)C1,inactive: 2.33%
15,O=C(NC(Sc1ccncn1)C(Cl)(Cl)Cl)c1ccccc1 (centres undefined),inactive: -5.28%
16,Cc1ccc(-c2csc(N3CCN(c4cc5c(cc4Cl)nc(-c4ccncc4)n5CCN4CCCCC4)CC3)n2)cc1,inactive: 5.65%
17,CC(C)[C@H](NC(=O)N1CCn2c1nc1ccccc12)C(=O)NCC1CCCO1 (some centres undefined),inactive: -1.01%
18,Cn1c(=O)c2c(ncn2CC(=O)Nc2cc(S(=O)(=O)N3CCCCC3)ccc2O)n(C)c1=O,inactive: -3.1%
19,Nc1ncnc2c1ncn2CCN1CCCCC1,inactive: -2.01%
20,O=C(Cn1c(CO)nc2ccccc21)NCCc1ccc(F)cc1,inactive: -3.35%

row,SMILES,activation
1,Cn1c(=O)c2ncn(CC(=O)NCCC3=CCCCC3)c2n(C)c1=O,inactive: 0.48%
2,CCOc1ccc(C(O)Cn2c(=N)n(CCN3CCCCC3)c3ccccc32)cc1 (centres undefined),inactive: -1.89%
3,CCCCC(=O)N/N=C(C)/C=C/c1ccccc1F,inactive: -1.94%
4,CCCn1c(=O)[nH]c(=O)c2c1nc(-c1ccccc1)n2CCN1CCOCC1,inactive: 3.32%
5,Cn1c(=O)c2c(ncn2CC(=O)N2CCN(S(=O)(=O)c3ccc(F)cc3)CC2)n(C)c1=O,inactive: -4.17%
6,CCN(CC)CCn1c(/N=C/c2cc(Br)ccc2O)nc2ccccc21,inactive: -7.63%
7,O=C(Cn1c(-c2cscn2)nc2ccccc21)Nc1ccc(Cl)cc1,inactive: 11.9%
8,CC1CCCC(C)N1C(=O)Cn1c(SCC(=O)NCc2ccc3c(c2)OCO3)nc2ccccc21 (centres undefined),inactive: 8.73%
9,S=C=Nc1cccc(C2(N3CCCCC3)CCCCC2)c1,inactive: 0.05%
10,CCCCNc1nc2ccccc2n1CC(=O)N1CCc2ccccc2C1,inactive: -1.98%
11,C=CCOC(=O)C1=C(C)N=C2SCCC(=O)N2C1/C=C/c1ccccc1OC (centres undefined),inactive: -4.57%
12,O=C(c1cccc(Cl)c1)N1CCn2c1nc1ccccc12,inactive: -1.87%
13,CCC(=O)Nc1ccc2c(c1)nc1n2CCN(CCOC)C1,inactive: -0.05%
14,COc1ccc(C)cc1S(=O)(=O)N1c2ccc(C)cc2C2CN(C)CCC21 (centres undefined),inactive: 2.59%
15,Cc1n[nH]c(C)c1CCC(=O)N/N=C/C=C/c1ccccc1,inactive: -3.84%
16,N=c1n(CCCOc2ccc(F)cc2)c2ccccc2n1CC(N)=O,inactive: -1.67%
17,O=C1Cn2c(nc3ccccc32)N1c1ccccc1F,inactive: 2%
18,CCC(C(=O)NC1CCCCC1)n1c(SCc2ccc(F)cc2)nc2ccncc21 (centres undefined),inactive: 0.16%
19,Cc1ccc(-c2csc(N3CCN(c4ccc5nc(-c6ccncc6)n(CCN6CCCCC6)c5c4)CC3)n2)cc1,inactive: 5.7%
